The results in this text go back to ChEMBL document CHEMBL5108065, “Discovery and Characterization of Potent, Efficacious, Orally Available Antimalarial Plasmepsin X Inhibitors and Preclinical Safety Assessment of UCB7362” (J Med Chem, 2022).

Molecules are shown by their SMILES.

In data set [1] the test system is Plasmodium falciparum. Put plainly: Antimalarial activity against Plasmodium falciparum 3D7 assessed as parasite reduction ratio at 10 times IC50 measured for 24 to 120 hrs by serial dilution analysis. It is filed as functional. Conditions: time 24-120 hrs.
The nature of data set [2]: Efflux ratio of apparent permeability in human Caco-2 cells at 50 uM. It is filed as ADME, cell-based. Particulars: caco-2, 50 µM. Background: Caco-2 monolayers are a common model of the intestinal barrier.
Data set [3] is described as follows: Efflux ratio of apparent permeability in human Caco-2 cells at 10 uM. It counts as ADME, cell-based. Conditions: caco-2, 10 µM.
A short description of data set [4]: Efflux ratio of apparent permeability in human Caco-2 cells at 2 uM. It is filed as ADME, cell-based. Conditions: caco-2, 2 µM.

With `C[C@H]1C[C@@H](N2C(=N)N[C@](C)(c3cccc(NC(=O)c4cccc(C#N)c4)c3Cl)CC2=O)CCO1`, in data set [1], the “log(ratio)” value amounted to 3.2. For the same compound, the Ratio is given as 85 in data set [2], 169 in data set [3] and 411 in data set [4].
